# Data published in PubChem BioAssay AID2650 (Broad Institute, 2010).
# Chains of the proteins cited; added tags and fusions are not shown.
# UniProt P49840, whole entry: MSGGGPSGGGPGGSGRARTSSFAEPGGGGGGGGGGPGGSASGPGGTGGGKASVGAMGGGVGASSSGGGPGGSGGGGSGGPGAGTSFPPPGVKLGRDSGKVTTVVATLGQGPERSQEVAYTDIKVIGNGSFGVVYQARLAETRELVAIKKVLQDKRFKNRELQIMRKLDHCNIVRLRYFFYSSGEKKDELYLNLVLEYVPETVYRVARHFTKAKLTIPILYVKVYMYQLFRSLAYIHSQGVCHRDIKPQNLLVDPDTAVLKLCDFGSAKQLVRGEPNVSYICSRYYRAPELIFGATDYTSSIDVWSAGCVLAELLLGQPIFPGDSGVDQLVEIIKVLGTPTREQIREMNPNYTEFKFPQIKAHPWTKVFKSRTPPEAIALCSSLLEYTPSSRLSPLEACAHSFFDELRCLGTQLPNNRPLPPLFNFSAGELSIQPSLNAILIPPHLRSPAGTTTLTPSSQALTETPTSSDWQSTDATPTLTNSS
# The list shows a part of the results, in another mix than the full data. Active and inactive are the calls of the source.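 Rule for the calls: active = more than half of replicates show inhibition above 20%; inconclusive = some but at most half of replicates above 20% inhibition; inactive = no replicate shows inhibition above 20%.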
# Biological target: Glycogen synthase kinase-3 alpha (Homo sapiens) (UniProt P49840)
# Assay: blockers of GSK3A enzyme activity – biochemical, luminescence, cell-free homogeneous, HTS, primary screen (AID 2650);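 note: GST-tagged GSK-3 alpha with peptide substrate and 25 µM ATP; 0% = DMSO neutral wells and 100% = GW8510 positive control wells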
# Details: GSK-3 alpha kinase, ADP-Glo luminescence, 60 min; at 10 µM; hits give high values
row,SMILES,inhibition
1,CC1=NCCc2c1[nH]c1ccccc21.O=[N+]([O-])c1cc([N+](=O)[O-])c(O)c([N+](=O)[O-])c1,inactive: -1.18%
2,O=C(O)c1cccc(Nc2c([N+](=O)[O-])cc([N+](=O)[O-])cc2[N+](=O)[O-])c1,inactive: 0.165%
3,Cc1ccc(C)c(NP(C)(=O)Oc2ccccc2)c1 (stereo unspecified),inactive: -1.94%
4,Cc1cc(C)cc(OP(C)(=O)Nc2ccccn2)c1 (stereo unspecified),inactive: -2.28%
5,CP(=O)(Nc1cccc(Br)c1)Oc1ccccc1 (stereo unspecified),inactive: 0.334%
6,CCOC(=O)c1ccc(NP(C)(=O)Oc2cc(C)cc(C)c2)cc1 (stereo unspecified),inactive: 1.02%
7,Cc1cc(C)cc(OP(C)(=O)Nc2ccc(C)cc2C)c1 (stereo unspecified),inactive: -0.942%
8,COc1ccccc1OP(C)(=O)Nc1cccc(Br)c1 (stereo unspecified),inactive: 1.26%
9,CCN(CC)CCCOC(=O)C(O)(c1ccccc1)c1ccccc1,inactive: -2.22%
10,Cc1cc(C)cc(OP(C)(N)=O)c1 (stereo unspecified),inactive: -3.39%
11,COc1ccc(OP(C)(=O)Nc2cccc(F)c2)cc1 (stereo unspecified),inactive: 0.479%
12,COc1ccccc1OP(C)(=O)Nc1cc(Cl)ccc1C (stereo unspecified),inactive: 0.815%
13,Cc1ccc(NP(C)(=O)Oc2ccccc2)c(C)c1 (stereo unspecified),inactive: 0.763%
14,COc1ccccc1OP(C)(=O)Nc1ccc(C)cc1 (stereo unspecified),inactive: 0.124%
15,CCOC(=O)c1ccc(NP(C)(=O)Oc2ccccc2)cc1 (stereo unspecified),inactive: -4.74%
16,O=[N+]([O-])c1ccc2c(c1)C=Nc1ccccc1O2,inactive: 0.027%

row,SMILES,inhibition
1,CC(C)(C)c1ccc(OP(C)(=O)Nc2ccc(SC(F)(F)F)cc2)cc1 (stereo unspecified),inactive: -1.16%
2,O=[N+]([O-])c1cc([N+](=O)[O-])c(Nc2cccnc2)c([N+](=O)[O-])c1,inactive: 2.51%
3,CP(=O)(Nc1ccccc1Br)Oc1ccccc1 (stereo unspecified),inactive: -2.34%
4,COc1ccccc1OP(C)(=O)Nc1ccccc1 (stereo unspecified),inactive: -1.69%
5,CP(=S)(Nn1cnnc1)Oc1ccccc1 (stereo unspecified),inactive: -2.54%
6,CP(=O)(Nc1ccccn1)Oc1ccc(Cl)cc1 (stereo unspecified),inactive: -0.0825%
7,CCOC(=O)c1ccc(NP(C)(=O)Oc2ccc(OC)cc2)cc1 (stereo unspecified),inactive: 0.255%
8,O=[N+]([O-])c1cc([N+](=O)[O-])c(O)c([N+](=O)[O-])c1.c1ccc(Oc2ccncc2)cc1,inactive: -2.52%
9,CCOP(C)(=S)SCC(=O)NC(C)C(=O)O (stereo unspecified),inactive: 0.296%
10,Cc1cc(C)cc(OP(C)(=O)Nc2ccc(SC(F)(F)F)cc2)c1 (stereo unspecified),inactive: -2.43%
11,CP(=O)(NC(=O)Nc1ccccc1)Oc1ccccc1 (stereo unspecified),inactive: -1.08%
12,CCc1ccc(OP(C)(=O)N2CCN(c3ccc([N+](=O)[O-])cc3)CC2)cc1 (stereo unspecified),inactive: -0.106%
13,CP(=O)(Oc1ccccc1)OC(c1ccccc1)C(F)(F)F (stereo unspecified),inactive: -0.254%
14,Cc1cccc(C)c1OP(C)(=O)Nc1ccc(SC(F)(F)F)cc1 (stereo unspecified),inactive: -2.19%
15,CP(=O)(Nc1ccc(SC(F)(F)F)cc1)Oc1ccc(Cl)cc1 (stereo unspecified),inactive: -2.31%
